Our source for the IC50 values is BindingDB's records for 3783578.

Sequences of proteins named here, by UniProt entry; tags and fusion partners are left off. Residues count along the entry.
UniProt O42275, 24-633 limits assumed: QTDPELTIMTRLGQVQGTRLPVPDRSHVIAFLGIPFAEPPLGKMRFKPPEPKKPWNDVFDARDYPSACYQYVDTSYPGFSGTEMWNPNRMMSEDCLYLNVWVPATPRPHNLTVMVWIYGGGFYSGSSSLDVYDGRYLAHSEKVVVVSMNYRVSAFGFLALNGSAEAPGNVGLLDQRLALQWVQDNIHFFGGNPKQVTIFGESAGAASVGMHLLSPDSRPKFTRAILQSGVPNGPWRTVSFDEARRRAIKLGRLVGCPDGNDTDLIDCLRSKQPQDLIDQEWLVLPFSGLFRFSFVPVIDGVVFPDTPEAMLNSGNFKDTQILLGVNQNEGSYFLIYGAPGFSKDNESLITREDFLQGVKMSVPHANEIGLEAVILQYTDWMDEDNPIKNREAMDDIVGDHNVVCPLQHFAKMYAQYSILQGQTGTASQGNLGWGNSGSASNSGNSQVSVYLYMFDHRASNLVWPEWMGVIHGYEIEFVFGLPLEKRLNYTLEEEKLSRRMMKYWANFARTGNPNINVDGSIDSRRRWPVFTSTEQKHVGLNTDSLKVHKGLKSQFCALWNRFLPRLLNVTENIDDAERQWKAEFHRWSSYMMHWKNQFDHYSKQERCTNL

Several values for one entry are separate records, joined by “and”; a condition that tells them apart may be missing. Identical values can stand only once.

The target of the first assay is T1, Acetylcholinesterase (Electrophorus electricus, UniProt O42275). Put plainly: ChEBML_27977.
For `CCCCCCCCc1noc(CN=O)n1`, the IC50 was more than 1000 µM.

In turn, `CCN(CC)CCNC(=NO)c1nc(-c2ccccc2)no1` came in with an IC50 of 890 µM.

`O=NCc1nc(-c2cccc3ccccc23)no1` came in with an IC50 of more than 1000 µM.

As to `CCN(CC)CCSC(N=O)c1nc(-c2ccccc2)no1` (centres undefined), the concentration for half-maximal inhibition (IC50) worked out at 220 µM.

As to `CCN(CC)CCSC(N=O)c1nc(C(C)(C)C)no1` (centres undefined), the IC50 was 99 µM.

`Cc1noc(CN=O)n1` displayed an IC50 of more than 1000 µM.

In the case of `O=NCc1nc(-c2cccs2)no1`, the IC50 is more than 500 µM.

`CCN(CC)CCSC(N=O)c1nc(Cc2ccccc2)no1` (centres undefined) yielded an IC50 of 55 µM.

Take `C[n+]1c(CCO[n+]2ccc(C(N)=O)cc2)cccc1CN=O`: the IC50 is 400 µM and > 1000 µM.

In turn, `CC(C)(C)c1noc(CN=O)n1` came in with an IC50 of more than 1000 µM.

In turn, `O=NCc1nc(Cc2ccccc2)no1` yielded an IC50 of more than 1000 µM.

The compound `CCN(CC)CCSC(N=O)c1nc(C)no1` (centres undefined) gave an IC50 of 104 µM.

Compound `O=NCc1nc(-c2ccccc2)no1` showed an IC50 of more than 1000 µM.

In another assay the target is T1, Acetylcholinesterase. The assay can be described thus: In vitro reversible inhibition of eel acetylcholinesterase.
Compound `O=NCc1nc(-c2ccccc2)no1` returned an IC50 of more than 1000 µM.

As a reminder, the IC50 is the concentration at which inhibition is half-maximal. A high value points to lower potency.
